Measured values from paper PMC5147891 (PLoS ONE, 2016).

Amino acid sequences for entries named in this document (tags omitted).
UniProt P35372, whole entry: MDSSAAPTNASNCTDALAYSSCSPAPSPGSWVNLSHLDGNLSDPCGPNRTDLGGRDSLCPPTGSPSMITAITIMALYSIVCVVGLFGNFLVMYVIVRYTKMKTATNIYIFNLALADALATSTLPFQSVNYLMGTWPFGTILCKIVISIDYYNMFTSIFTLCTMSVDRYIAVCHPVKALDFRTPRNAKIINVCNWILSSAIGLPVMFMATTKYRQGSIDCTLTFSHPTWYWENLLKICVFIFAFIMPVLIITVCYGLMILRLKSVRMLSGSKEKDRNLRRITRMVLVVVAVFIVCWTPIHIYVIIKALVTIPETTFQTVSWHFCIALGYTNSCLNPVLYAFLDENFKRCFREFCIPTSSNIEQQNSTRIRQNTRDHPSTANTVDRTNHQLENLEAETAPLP

Target: T1, human mu-opioid receptors (hMOR) (Homo sapiens, UniProt P35372)
T1 construct: expressed in transfected cells
Experiment: [35S]GTPγS binding (G-protein activity), CHO-hMOR membranes
Format: biochemical
Conditions: SERMs 10 μM, DAMGO 1 μM
Method: CHO-hCB1, CHO-hCB2 and CHO-hMOR cells were homogenized individually with 10 complete strokes utilizing a 7ml Dounce glass homogenizer in an ice-cold buffer containing 50 mM HEPES pH 7.4, 3 mM MgCl2, and 1 mM EDTA as described previously. The homogenized samples were then centrifuged at 40,000 × g for 10 min at 4°C. Supernatants were discarded; the pellets re-suspended in the buffer, homogenized again, and centrifuged similarly twice more. After the final centrifugation step, supernatants were discarded and pellets were re-suspended in ice-cold 50 mM HEPES, pH 7.4 to achieve an approximate protein concentration of 10 mg/ml. […] A small aliquot of each membrane preparation was removed prior to freezing and the protein concentration was determined using BCA Protein Assay (Thermo Fisher Scientific, Waltham, MA).
The GTPγS binding assay to measure G-protein activation was performed as previously described. […] Nonspecific binding was defined by the amount of radioactivity remaining in the presence of 10 μM non-radiolabeled GTPγS. […] Four ml of scintiverse scintillation fluid (Fisher Scientific, Waltham, MA) was added to the filters and the amount of radioactivity was quantified 24 hr later utilizing liquid scintillation spectrophotometry.
Data presented are expressed as mean ± standard error of the mean (S.E.M.) for a minimum of three experiments, each performed in triplicate. […]

## DAMGO
  Effect on basal [35S]GTPγS binding: increased
